From PubChem BioAssay AID504842 (National Center for Advancing Translational Sciences (NCATS), 2011)
Among all 330,000 compounds or so, about 100 (0.03%) were called active. These results got no clear call from the source, so the numbers are uncertain. Calls follow the shape of the dose curve; as a rule, active = well fitted inhibition curve with a large enough effect; inconclusive = small, poorly fitted or top-dose-only effect; inactive = flat fitted curve, though single readings scatter.
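Also: enzyme at 25 nM with ATP substrate at 10 µM during the reaction; nearly all actives have a fitted effect of over 80% in size.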
Potency is read from the fitted curve at half-maximal effect.

These molecules were tested on Chaperonin Mm-Cpn (Methanococcus maripaludis) (assay: Inhibitors of TCP-1 ring complex (TRiC) of Methanococcus maripaludis (MmCpn): qHTS). Conditions: purified Mm-Cpn ATPase, ADP Transcreener TR-FRET.
Source text: The eukaryotic chaperonin TRiC (for TCP-1 ring complex) is an essential and conserved chaperone required for the folding and activation of 10-15% of the proteins encoded by the human genome. […] The TRiC complex consist of two stacked 7-9 membered rings, each containing a central cavity. Substrates are folded within the cavity in an ATP-dependent manner. TRiC is a complex of eight different, essential proteins. As each of the genes encoding the eight subunits is essential for cell viability and no protocol has been developed to over-express this enzyme to high levels. […] This assay applied the time resolved fluorescence resonance energy transfer (TR-FRET) principle. […]
Purified Mm-CPN was supplied by the laboratory of Dr. Judith Frydman. […] Plates were read on the PerkinElmer EnVision plate reader using Excitation = 320 nm and Emission = […], 665 nm. Protocol- 1.Dispense 1.5ul per well of working [Mm-CPN] = 50nM (or 75 ng / well) 2.Spin plate at 1000 rpm for 30 seconds 3.23nl of compound transferred per well 4.Incubate at 37degC for 10 minutes 5.Dispense 1.5ul per well of working [ATP] = 20uM 6.Incubate at 37degC for 30 minutes 7.Dispense 3ul per well of Anti-ADP Cryptate / ADP-d2 mix (prepared as instructed by Cisbio) 8.Incubate at ambient for 30 minutes 9.Read using EnVision
With `O=P(Nc1nccs1)(c1ccccc1)c1nc2ccccc2s1` (configuration not stated) the Potency was inconclusive: 56.2 µM.
For `CCN(/C(=N/P(=O)(N1CCOCC1)N1CCOCC1)N1CCOCC1)c1ccc(OC)cc1`, the Potency was inconclusive: 17.8 µM.
